Reference: patent US11279728B2, “Broad spectrum viral inhibitor” (Albert Einstein College of Medicine, priority 2017, dated 2022)

Biological target: T1, Rattus norvegicus (residues 51-361) viperin (Rvip) (Rattus norvegicus, UniProt O70600)
T1 sequence (O70600 51-360 limits assumed): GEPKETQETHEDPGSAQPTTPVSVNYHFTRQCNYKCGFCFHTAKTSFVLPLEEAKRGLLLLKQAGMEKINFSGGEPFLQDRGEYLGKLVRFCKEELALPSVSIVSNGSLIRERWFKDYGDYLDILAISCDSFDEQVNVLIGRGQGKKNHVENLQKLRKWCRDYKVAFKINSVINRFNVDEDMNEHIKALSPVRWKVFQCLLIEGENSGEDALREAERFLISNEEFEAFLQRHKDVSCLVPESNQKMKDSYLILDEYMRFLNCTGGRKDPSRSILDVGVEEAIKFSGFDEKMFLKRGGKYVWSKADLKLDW
Assay: In vitro characterization of viperin (Rvip) activity: 5′dA formation / ddhCTP production
Conditions: coincubation of 1 mM deuCTP and 1 mM deoxyCTP; 5′-dA m/z readout

SMILES: Nc1ccn([C@H]2C[C@H](O)[C@@H](COP(=O)(O)OP(=O)(O)OP(=O)(O)O)O2)c(=O)n1 [deoxyCTP]
- substrate for Rvip: not a substrate
